The source of these data is ChEMBL document CHEMBL4152336, “Optimization of the first small-molecule relaxin/insulin-like family peptide receptor (RXFP1) agonists: Activation results in an antifibrotic gene expression profile” (Eur J Med Chem, 2018).

The assay relates to HEK293. The assay is described as follows: Cytotoxicity against HEK293 cells assessed as reduction in cell viability by measuring ATP level by ATPlite assay. The following applies: Homo sapiens. It is filed as cell-based.

With `CCCCOc1ccccc1C(=O)Nc1ccccc1C(=O)Nc1cccc(S(=O)(=O)C(F)(F)F)c1`, the EC50 was determined as 59.3 µM.
